Results from patent US20190315854A1 (BEIJING VDJBIO, published 2019).

T1: sIL-6R (soluble IL-6 receptor; SBH Sciences) (human, UniProt P08887 20-365)
T1 construct: also called human IL-6R
T1 sequence: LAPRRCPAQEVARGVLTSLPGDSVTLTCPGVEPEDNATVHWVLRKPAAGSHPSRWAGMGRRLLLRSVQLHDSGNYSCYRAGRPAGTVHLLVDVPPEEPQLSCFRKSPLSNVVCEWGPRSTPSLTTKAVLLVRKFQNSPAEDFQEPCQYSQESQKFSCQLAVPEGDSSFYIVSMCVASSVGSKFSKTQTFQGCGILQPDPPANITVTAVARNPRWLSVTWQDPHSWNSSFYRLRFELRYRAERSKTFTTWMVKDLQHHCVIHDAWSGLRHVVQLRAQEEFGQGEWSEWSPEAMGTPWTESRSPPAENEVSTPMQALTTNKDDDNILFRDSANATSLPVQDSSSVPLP


What was measured:
[1] = biological target: T1, sIL-6R (soluble IL-6 receptor; SBH …); test: SPR (BIAcore 3000), antibody on chip, sIL-6R analyte, 25 C
Description: (§1) All SPR measurements were performed on a BIAcore 3000 instrument (GE Biosciences, Piscataway, N.J.). BIAcore Software-BIAcore 3000 Control Software V3.2 was used for the operation and control of the BIAcore 3000 instrument. BiaEvaluation Software V4.1 was used for the analysis of SPR data from the BIAcore 3000 instrument and data was plotted using Graph Pad Prism Software Version 5. […] The indicated antibodies were used as the ligand for the construction of the reference channel of the chip. […] Each sample was injected for 3 min at a flow rate of 30 μL/min to allow for binding to chip-bound antibody. Next, binding buffer without analyte was sent over the chip at the same flow rate to allow for dissociation of bound analyte. After 500s, remaining bound analyte was removed by injecting regeneration solution (1M Formic acid). Data was analyzed by using the Kinetics Wizard and the manual fitting programs that are both included with the BiaEvaluation Software V4.1.

[2] = biological target: T1, sIL-6R (soluble IL-6 receptor; SBH …); test: as above; remark: listed apart in the source
Description: as §1

Kd [1] [nM]	Relative Affinity [1]	koff [1] [s⁻¹]	kon [1] [M⁻¹ s⁻¹]	Kd [2] [nM]	Relative Affinity [2]	koff [2] [s⁻¹]	kon [2] [M⁻¹ s⁻¹]	Binder
0.432	3.1 fold vs 25 (Tocilizumab)	8.51e-05	197000	0.585	2.9 fold vs 25 (Tocilizumab)	0.000117	200000	2# (antibody, human IgG1, kappa, also called Sample # 2) heavy: QVQLQESGPGLVRPSQTLSLTCTVSGYSITSDHAWSWVRQPPGRGLEWIGYISYSGITTYNPSLKSRVTMLRDTSKNQFSLRLSSVTAADTAVYYCARCLARTTAMDYWGQGSLVTVSSASTKGPSVFPLAPSSKNTSGGTAALGCLVKDYFPEPVTVSWNSGALTSGVHTFPAVLQSSGLYSLSSVVTVPSSSLGTQTYICNVNHKPGNTKVDKKV[letters of human IgG1 Fc not shown] light: DIQMTQSPSSLSASVGDRVTITCRASQDISSYLNWYQQKPGKAPKLLIYYTSRLHSGVPSRFSGSGSGTDFTFTISSLQPEDIATYYCQQGNTLPYTFGQGTKVEIKRTVAAPSVFIFPPSDEQLKSGTASVVCLLNNFYPREAKVQWKVDNALQSGNSQESVTEQDSKDSTYSLSSTLTLSKADYEKHKVYACEVTHQGLSSPVTKSFNRGEC
		0.000102	144000					50# (antibody, human IgG1, kappa, also called Sample # 50) heavy: QVQLQESGPGLVRPSQTLSLTCTVSGYSITSDHAWSWVRQPPGRGLEWIGYISYSGITTYNPSLKSRVTMLRDTSKNQFSLRLSSVTAADTAVYYCARCLARTTAMDYWGQGSLVTVSSASTKGPSVFPLAPSSKSTSGGTAALGCLVKDYFPEPVTVSWNSGALTSGVHTFPAVLQSSGLYSLSSVVTVPSSSLGTQTYICNVNHKPSNTKVDKKV[letters of human IgG1 Fc not shown] light: DIQMTQSPSSLSASVGDRVTITCRASQDISSYLNWYQQKPGKAPKLLIYYTSRLHSGVPSRFSGSGSGTDFTFTISSLQPEDIATYYCQQGNTLPYTFGQGTKVEIKRTVAAPSVFIFPPSDEQLKSGTASVVCLLNNFYPREAKVQWKVDNALQSGNSQESVTEQDSKDSTYSLSSTLTLSKADYEKHKVYACEVTHQGLSSPVTKSFNRGEC
0.751	1.8 fold vs 25 (Tocilizumab)	0.000158	210000					20# (antibody, human IgG1, kappa, also called Sample # 20) heavy: QVQLQESGPGLVRPSQTLSLTCTVSGYSITSDHAWSWVRQPPGRGLEWIGYISYSGITTYNPSLKSRVTMLRDTSKNQFSLRLSSVTAADTAVYYCARCLARTTAMDYWGQGSLVTVSSASTKGPSVFPLAPSSKNTSGGTAALGCLVKDYFPEPVTVSWNSGALTSGVHTFPAVLQSSGLYSLSSVVTVPSSSLGTQTYICNVNHKPSNTKVDKKV[letters of human IgG1 Fc not shown] light: DIQMTQSPSSLSASVGDRVTITCRASQDISSYLNWYQQKPGKAPKLLIYYTSRLHSGVPSRFSGSGSGTDFTFTISSLQPEDIATYYCQQGNTLPYTFGQGTKVEIKRTVAAPSVFIFPPSDEQLKSGTASVVCLLNNFYPREAKVQWKVDNALQSGNSQESVTEQDSKDSTYSLSSTLTLSKADYEKHKVYACEVTHQGLSSPVTKSFNRGEC

Like-named read-outs stand apart in the source and are kept apart here.
